The numbers were not newly measured in patent US8200327B2, which cites them from elsewhere.

The structures appear in SMILES notation. This is a selection: effects in other tests are not listed, and their absence says nothing.

For this data set the following is noted: for lag time (time required to achieve peak plasma levels): electrotransport delivery.

With `CCC(=O)N(c1ccccc1)C1CCN(CCc2ccccc2)CC1`, the “lag time (time required to achieve peak plasma levels)” value is reported as 1.5 h.
With `CCC(=O)N(c1ccccc1)C1(COC)CCN(CCc2cccs2)CC1`, the “lag time (time required to achieve peak plasma levels)” value is recorded as 1.5 h. The plasma concentration entry (simple diffusion, citrate buffer at pH 5) is “did not produce any detectable plasma concentration”.
